From article PMC5290001 (Clinical cancer research : an official journal of the …, 2016)

What was measured:
[1] = Temozolomide plasma pharmacokinetics; type: in vivo, human
[2] = Veliparib plasma pharmacokinetics; type: in vivo, human
[3] = combination (day 8) versus alone (day 1)

SMILES	Accumulation index for AUC ([1]; combination with veliparib versus alone)	Cl/F ([1]; temozolomide 200 mg/m^2/day in combination with veliparib 20–200 mg (day 8))	Accumulation index for AUC [2, 3]	Accumulation index for Cmax [2, 3]	V/F ([2]; veliparib 40 mg alone (day 1), temozolomide dose 200 mg/m^2/day, n=1)
Cn1nnc2c(C(N)=O)ncn2c1=O [Temozolomide, temozolomide]	0.89 ± 0.26	10.1±2.7 (25) L/h			
C[C@]1(c2nc3c(C(N)=O)cccc3[nH]2)CCCN1 [Veliparib, veliparib]			1.38 ± 0.52	1.66 ± 0.62	90 (1) L
